The assay addresses Bruton's Tyrosine Kinase (BTK) (Homo sapiens, UniProt Q06187). Nature of the assay: COOKIE-Pro competition chemoproteomics in permeabilized Ramos cells (kinact/KI). It is filed as cell-based.

Protein sequences, listed by entry. Tags and fused reporters are not part of them. Residues count along the entry.
UniProt Q06187, 2-659: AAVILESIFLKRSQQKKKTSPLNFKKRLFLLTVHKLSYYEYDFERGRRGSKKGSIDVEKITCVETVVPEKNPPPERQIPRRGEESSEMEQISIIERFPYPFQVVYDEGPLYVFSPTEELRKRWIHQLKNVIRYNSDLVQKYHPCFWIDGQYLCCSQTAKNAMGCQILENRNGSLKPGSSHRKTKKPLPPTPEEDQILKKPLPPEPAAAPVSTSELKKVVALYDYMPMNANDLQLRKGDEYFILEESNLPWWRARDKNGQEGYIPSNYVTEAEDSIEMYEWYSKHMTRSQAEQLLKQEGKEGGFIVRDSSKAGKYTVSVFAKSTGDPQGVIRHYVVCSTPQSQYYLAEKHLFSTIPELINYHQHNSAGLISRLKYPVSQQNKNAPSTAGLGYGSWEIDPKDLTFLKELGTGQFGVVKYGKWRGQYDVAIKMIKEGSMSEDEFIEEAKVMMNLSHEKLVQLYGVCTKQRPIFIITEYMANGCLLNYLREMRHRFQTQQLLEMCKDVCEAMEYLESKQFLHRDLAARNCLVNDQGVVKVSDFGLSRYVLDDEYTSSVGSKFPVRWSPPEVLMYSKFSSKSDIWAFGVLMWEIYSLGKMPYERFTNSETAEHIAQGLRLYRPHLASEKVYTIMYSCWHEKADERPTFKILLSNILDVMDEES

SMILES strings stand for the structures.

`C=CC(=O)Nc1cccc(Nc2nc(Nc3ccc(OCCOC)cc3)ncc2F)c1` [spebrutinib]: the kinact/KI (as a rule, the second-order rate constant of inactivation) is 91500 M⁻¹ s⁻¹.
